Details: in vivo

## NCCNCCNCCN [TETA, triethylenetetramine]
  SL · ER0, slope between TETA and Cu excretion rate: 24.3 (17.4) (mg/L)^−1 · (μg/h)
